## AlphaSeq binding of Ab-14 light chain variants to a spike HR2 peptide

Reference: Li et al. 2023, doi:10.1038/s41467-023-39022-2. File: FLAb, binding data.

Target peptide (SARS-CoV-2 spike, HR2 region): PDVDLGDISGINAS

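This is the validation round: designs drawn from the data on random variants, tested in the same kind of assay. Group labels follow the data file (En: ensemble of fine-tuned language models; GP: Gaussian process model; HC: hill climbing; Gen: genetic algorithm; Gibbs: Gibbs sampling; a sequence that several methods proposed may carry one label only). The assay is AlphaSeq: two haploid yeast populations carry antibody and antigen on their surface. Binding brings cells together so that they mate, and sequencing counts the barcode pairs among the diploids. The ratio of observed to expected reads was calibrated, replicate by replicate, on BCL2-family standards whose Kd was known from biolayer interferometry. Each pool was mated in six replicate cultures.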

Each scFv is VH, a (GGGGS)3 linker, VL, as in the parent Ab-14, and differs from it in the CDRs of the light chain only.
VH: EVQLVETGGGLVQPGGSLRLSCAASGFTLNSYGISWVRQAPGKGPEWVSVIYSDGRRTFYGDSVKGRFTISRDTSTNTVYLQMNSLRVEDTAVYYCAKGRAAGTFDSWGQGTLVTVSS
VL: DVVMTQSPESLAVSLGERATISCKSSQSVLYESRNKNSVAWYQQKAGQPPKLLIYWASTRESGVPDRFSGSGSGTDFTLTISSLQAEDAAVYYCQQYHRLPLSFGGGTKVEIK

The parent's light chain CDRs are KSSQSVLYESRNKNSVA, WASTRES, QQYHRLPLS; each variant's own CDRs replace them letter for letter. Variants here have more than six changes. Each Kd is an estimate from the mating assay, the geometric mean of the replicates in which the pair was seen; lower is stronger. "no signal" marks a missing value. The strain was present, yet no cells mated with the target were sequenced in any replicate, which points to weak or no binding.

The variant TIAQSFLMENQFKNSVA / QASTRES / QCYDRLPLS [En_HC] gave 44 nM (6 of 6 replicates). The variant KISQTFNVGTKNKNSLA / EMSTRGF / QDYHRLPLS [En_HC] showed 9.9 nM (6 of 6 replicates). With MIAESVGYMSRNKNSVA / DNSTRED / QCYDRLPLS [En_HC] the result was 5.3 nM (6 of 6 replicates). The variant NLVEMEGTNQTKHGNIA / SVDQRMS / QQYQRLPLI [En_Gibbs] gave 21 nM (6 of 6 replicates). The variant KFQQSWLYESRMQNNVA / NASLRES / QQYHRLPLS [GP_Gibbs] showed 960 pM (6 of 6 replicates). For ALRGVGYDEQVKHSAIA / DAEHVNQ / QQYSMLPLS [En_Gibbs], the assay gave 3.4 nM (6 of 6 replicates). The variant TLTQVTMVESYMKNSVA / QASTREE / QDYHRLPLS [En_HC] showed 15 nM (6 of 6 replicates). For KLGDMVHTLSRNKNSIA / DMRTREN / QQYYRLPLS [En_HC], the assay gave 1.0 nM (6 of 6 replicates). For KLECSQEYWSRNTNSVA / GASTRES / QQYHRLPLS [GP_Gibbs], the assay gave 1.5 nM (6 of 6 replicates).

For QLSMLTGHVSMSKNNVA / EMETRCN / QQYDRLPLS [En_Gen], the assay gave 5.4 nM (6 of 6 replicates). The variant KFQQMVMQEDRNKNSVA / QASTRMQ / QQYHRLPLS [GP_Gibbs] gave 960 pM (6 of 6 replicates). For IVSQLMLWGMHVKNSIA / EAELRLN / QQYDRLPLI [En_Gen], the assay gave no signal (0 of 6 replicates). For KVTMYELEMEFNRSAVA / QAEVRAP / QQYWRLPLE [En_Gibbs], the assay gave 15 nM (6 of 6 replicates). For MISQLYNMGSFAINSVA / QASERSE / QQYDRLPLI [En_Gen], the assay gave 52 nM (6 of 6 replicates). For TLTQVTMVESYAKNSVA / QASTRLE / QDYHRLPLS [En_HC], the assay gave 2.1 nM (6 of 6 replicates). The variant KVSIEDLGGDRNKNSVA / HASLRES / QQYHRLPLS [GP_Gibbs] showed 1.1 nM (6 of 6 replicates). The variant TISQMTSLFSQTINNVA / EVSTREA / QQYDRLPLT [En_Gen] gave 4.7 nM (6 of 6 replicates). The variant KLPQSDLYWQRNSNSVA / NASTRFS / QQYHRLPLS [GP_Gibbs] gave 940 pM (6 of 6 replicates).

The variant KISMSNTFESRNKNSVA / ENSTRES / QSYHRLPLS [En_HC] showed 410 nM (4 of 6 replicates). For KLYQSVGTMSHNKQSIA / DMDRRED / QQYHRLPLS [En_HC], the assay gave 1.3 nM (6 of 6 replicates). With TISTTMRYESSLKNAIA / NAQTRES / QQYHRLPLS [En_HC] the result was 2.4 nM (6 of 6 replicates). The variant KFMQSWLGQSLNKNSVA / NASQREH / QQYHRLPLS [GP_Gibbs] gave 800 pM (6 of 6 replicates). The variant MVTQMAMSGMTNKRNVA / NAETREA / QQYHRLPLI [En_Gen] gave 1.7 nM (6 of 6 replicates). The variant KLGNQEQMNGMATQNVA / AMNTVVD / QEYHRLPLI [En_Gibbs] gave 2.2 nM (6 of 6 replicates). The variant KVEQSVMMGSRNKNSVA / NASQREQ / QQYHRLPLS [GP_Gibbs] showed 910 pM (6 of 6 replicates). The variant FIMHFGEESNLNSKNIA / AKNTRVD / QQYNRLPLS [En_Gibbs] gave 3.4 nM (6 of 6 replicates). The variant KLVQFMNRGTHHTSNIA / DAALREE / QQYYRLPLA [En_Gen] gave 5.9 nM (6 of 6 replicates).

The variant MISQLSNMGQFAINSVA / QASLRND / QQYDRLPLM [En_Gen] showed 5.7 nM (6 of 6 replicates). With MISQLMNMGQFAINSVA / QAEIRNA / QQYDRLPLM [En_Gen] the result was no signal (0 of 6 replicates). With NLKENNVDNQTKYSNIA / HADQREK / QQYYRLPLQ [En_Gibbs] the result was 4.1 nM (6 of 6 replicates). For KLSVSTSYLSVNKHSVA / EMSTRES / QQYDRLPLS [En_HC], the assay gave 3.5 nM (6 of 6 replicates). The variant TLGGAMHTQMNMKNSVA / DLTTRGN / QQYHRLPLS [En_Gen] showed 1.5 nM (6 of 6 replicates). The variant KAQLTHEGQPRNHNSIA / EGISRTT / QQYFRLPLM [En_Gibbs] showed 1.1 nM (6 of 6 replicates). The variant HMKDEPGLGPQTYSSVA / HANIREP / QQYYRLPLM [En_Gibbs] showed 2.8 nM (6 of 6 replicates). With KLSQVTHSESFNKNSIA / EMVTREV / QQYDRLPLS [En_HC] the result was 9.7 nM (6 of 6 replicates). With TITMFMDNASHNRNNVA / DTSTLGS / QSYDRLPLS [En_Gen] the result was 26 nM (6 of 6 replicates).

The variant TLTQVNGMESHNKDNVA / DLSTRGN / QQYHRLPLS [En_HC] gave 2.4 nM (6 of 6 replicates). The variant ILNLSPMGHQIHMDAIA / QEAIRNV / QQYARLPLS [En_Gibbs] showed 34 nM (5 of 6 replicates). The variant KLGDFVHTESRNKNSIA / DMRTRES / QQYYRLPLS [En_HC] showed 950 pM (6 of 6 replicates).

Excerpt, the final 3 entries:

TLTQVNGMESHNKDNVA / DLSTRGN / QQYHRLPLS [En_HC]: 2.4 nM (6 of 6 replicates).
ILNLSPMGHQIHMDAIA / QEAIRNV / QQYARLPLS [En_Gibbs]: 34 nM (5 of 6 replicates).
KLGDFVHTESRNKNSIA / DMRTRES / QQYYRLPLS [En_HC]: 950 pM (6 of 6 replicates).

The range of this assay differs from that of the first round, and the authors advise against merging the two. Three control strains display no target. For all light chain designs, 4% of the pairings with them gave a signal, with a median of 430 nM and one signal in twenty below 38 nM, so weak values seen in few replicates may be background. In the paper, a design with two or fewer of six values counts as a poor binder.